Assay results published in patent US6699854B2, “Anti-cancer compounds” (Cyclacel Limited, priority 2000, dated 2004).

Target: CDK2/cyclin E (Homo sapiens, UniProt P24941)
Assay: CDK2/cyclin E kinase assay (GST-Rb phosphorylation);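 note: enzyme source: His-tagged CDK2/cyclin E co-expressed in Sf9 insect cells via baculovirus, then purified by metal-chelate chromatography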
Conditions: Table 2, further results for CDK2/cyclin E inhibition

| IC50 [nM] | Structure (SMILES) |
| --- | --- |
| 100 | Cc1nc(C)c(-c2ccnc(Nc3cccc(Cl)c3)n2)s1 [Compound 7, (3-Chloro-phenyl)-{4-(2,4-dimethyl-thiazol-5-yl)-pyrimidin-2-yl}-amine] |
| 8000 ± 3000 | Cc1nc(C)c(-c2ccnc(Nc3ccc([N+](=O)[O-])cc3)n2)s1 [Compound 13, {4-(2,4-Dimethyl-thiazol-5-yl)-pyrimidin-2-yl}-(4-nitro-phenyl)-amine] |
| 2500 ± 100 | Cc1nc(C)c(-c2ccnc(Nc3ccccc3F)n2)s1 [Compound 20, {4-(2,4-Dimethyl-thiazol-5-yl)-pyrimidin-2-yl}-(2-fluoro-phenyl)-amine] |
| 200 ± 100 | Cc1nc(C)c(-c2ccnc(Nc3cccc(F)c3)n2)s1 [Compound 35, {4-(2,4-Dimethyl-thiazol-5-yl)-pyrimidin-2-yl}-(3-fluoro-phenyl)-amine] |
| 60 | Cc1nc(C)c(-c2ccnc(Nc3ccc(O)cc3)n2)s1 [Compound 41, 4-{4-(2,4-Dimethyl-thiazol-5-yl)-pyrimidin-2-ylamino}-phenol] |
| 800 ± 400 | Cc1nc(C)c(-c2ccnc(Nc3cccc(N)c3)n2)s1 [Compound 47, N-{4-(2,4-Dimethyl-thiazol-5-yl)-pyrimidin-2-yl}-benzene-1,3-diamine] |
| 90 | CNc1nc(C)c(-c2ccnc(Nc3cccc(O)c3)n2)s1 [Compound 85, 3-{4-(4-Methyl-2-methylamino-thiazol-5-yl)-pyrimidin-2-ylamino}-phenol] |
